For 2 compounds, IC50 results are on record in ChEMBL document CHEMBL1158185, “Synthesis and potent antileukemic activities of 10-benzyl-9(10H)-acridinones” (Bioorg Med Chem, 2008).

Only a part of the results on these compounds is given; other tests are left out.

For this test, the system named is CCRF-CEM. As to the kind of experiment: Antiproliferative activity against human CCRF-CEM cells after 48 hrs by MTT assay. For orientation: Tetrazolium dyes change colour on reduction, which living cells bring about.

For orientation: IC50 means the midpoint of a concentration-inhibition curve. A higher IC50 goes with lower potency.

`O=C1CCN(Cc2ccccc2)CC1` displayed an IC50 of more than 100 µM.
As for `COc1cc(CN2CCC(=O)CC2)cc(OC)c1`, the figure is more than 100 µM.
